Where two headings read alike, the source gives them in different places.

Consider one substance from patent US9976170B2, “Method for evaluating bacterial cell wall integrity” (UNIVERSIDAD AUTONOMA DE MADRID, priority 2011, dated 2018).

The test system of the data set is amoxicilin/clavulanic acid-sensitive E. coli strain.

As to amoxicilin/clavulanic acid, the viable cells worked out at 5.62% (32/16, 15 minutes of incubation); 3.77% (32/16, 2 hours of incubation); 0.13% (32/16, 6 hours); 0.38% (32/16, at both 3 and 4 hours).
